# According to EP4843990A1, “AMINO HETEROARYL MACROCYCLIC COMPOUNDS AS WELL AS PREPARATION METHOD THEREFOR AND USE THEREOF” (dated 2026):
# Chains of the proteins cited; added tags and fusions are not shown.
# UniProt P08183, whole entry: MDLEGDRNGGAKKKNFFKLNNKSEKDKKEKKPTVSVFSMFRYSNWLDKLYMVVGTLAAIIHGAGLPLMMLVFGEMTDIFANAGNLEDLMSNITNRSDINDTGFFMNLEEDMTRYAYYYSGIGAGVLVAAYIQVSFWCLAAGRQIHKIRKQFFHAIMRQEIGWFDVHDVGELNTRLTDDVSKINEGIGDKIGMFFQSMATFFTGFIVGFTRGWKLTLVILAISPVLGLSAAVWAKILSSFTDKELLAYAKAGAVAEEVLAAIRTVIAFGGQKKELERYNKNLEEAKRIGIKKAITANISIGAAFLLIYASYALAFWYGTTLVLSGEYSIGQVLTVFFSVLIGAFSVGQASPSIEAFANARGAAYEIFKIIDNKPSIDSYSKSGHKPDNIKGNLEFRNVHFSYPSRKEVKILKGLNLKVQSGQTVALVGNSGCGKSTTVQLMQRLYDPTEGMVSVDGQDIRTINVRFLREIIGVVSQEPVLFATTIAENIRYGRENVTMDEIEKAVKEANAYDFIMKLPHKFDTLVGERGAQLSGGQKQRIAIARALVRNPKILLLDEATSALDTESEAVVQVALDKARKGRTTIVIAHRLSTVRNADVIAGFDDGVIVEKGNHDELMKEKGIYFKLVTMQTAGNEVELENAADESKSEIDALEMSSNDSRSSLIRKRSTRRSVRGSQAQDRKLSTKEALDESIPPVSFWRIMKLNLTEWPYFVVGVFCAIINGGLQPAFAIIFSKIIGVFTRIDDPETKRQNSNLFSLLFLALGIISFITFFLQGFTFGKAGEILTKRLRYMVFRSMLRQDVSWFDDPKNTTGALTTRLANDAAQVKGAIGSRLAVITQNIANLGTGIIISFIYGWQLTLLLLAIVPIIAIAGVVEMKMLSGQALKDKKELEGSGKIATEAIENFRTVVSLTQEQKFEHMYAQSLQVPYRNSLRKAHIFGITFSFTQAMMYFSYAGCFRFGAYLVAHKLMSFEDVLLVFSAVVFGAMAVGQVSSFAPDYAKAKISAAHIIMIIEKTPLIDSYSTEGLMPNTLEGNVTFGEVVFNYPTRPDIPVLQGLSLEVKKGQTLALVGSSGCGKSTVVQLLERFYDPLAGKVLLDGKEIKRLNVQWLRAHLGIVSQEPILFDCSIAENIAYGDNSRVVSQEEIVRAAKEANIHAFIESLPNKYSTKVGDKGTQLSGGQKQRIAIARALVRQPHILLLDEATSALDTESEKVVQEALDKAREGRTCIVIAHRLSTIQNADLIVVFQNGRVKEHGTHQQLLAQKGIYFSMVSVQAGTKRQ
# Tests used:
# Ba/F3 EGFR wt+EGF = experiment: CellTiter-Glo cell proliferation inhibition assay; details: read-out: Antiproliferative activity (IC50 (nM)) Ba/F3 EGFR wt+EGF; Ba/F3 EGFR wt cells with EGF stimulation; 72 hours; CTG
# NCI-H1975 = experiment: CellTiter-Glo cell proliferation inhibition assay; details: read-out: Antiproliferative activity (IC50 (nM)) NCI-H1975; NCI-H1975 cells; 72 hours; CTG
# A431 = experiment: CellTiter-Glo cell proliferation inhibition assay; details: read-out: Antiproliferative activity (IC50 (nM)) A431; A431 cells; 72 hours; CTG
# Ba/F3 (EGFR-L858R/C797S) = experiment: CellTiter-Glo cell proliferation inhibition assay; details: read-out: Antiproliferative activity (IC50 (nM)) Ba/F3 EGFR LR/CS; Ba/F3 (EGFR-L858R/C797S) cells; 72 hours; CTG
# PC9 = experiment: CellTiter-Glo cell proliferation inhibition assay; details: read-out: Antiproliferative activity (IC50 (nM)) PC9; PC9 cells; 72 hours; CTG
# [1] = tested on: Ba/F3 (EGFR-L858R/T790M/C797S); experiment: CellTiter-Glo cell proliferation inhibition assay; details: read-out: Antiproliferative activity (IC50 (nM)) Ba/F3 EGFR LR/TM/CS; Ba/F3 (EGFR-L858R/T790M/C797S) cells; 72 hours; CTG
# P-gp = P-gp (Homo sapiens, UniProt P08183); experiment: P-gp substrate evaluation assay (MDCKII-MDR1 Transwell permeability); details: MDCKII-MDR1 cells; Papp basolateral to apical / apical to basolateral; 2 hours; pH 7.4
# [2] = Cassette pharmacokinetic study in mice; details: ICR mice; PO; cassette dosing; 20 mg/kg
compound,measurement,setting,value
"Cc1nn(C)c2c1-c1nccc(n1)Nc1cc3c(ccc(N4C[C@H](CS(C)(=O)=O)[C@H]4C)c3cn1)C(C)C(F)(F)CO2 (single isomer, unassigned)",IC50,Ba/F3 EGFR wt+EGF,196 nM
same,IC50,NCI-H1975,3.1 nM
same,IC50,A431,695 nM
same,IC50,Ba/F3 (EGFR-L858R/C797S),0.8 nM
same,IC50,PC9,1 nM
same,IC50,[1],1.4 nM
same,ER (Efflux Ratio),P-gp,0.9
same,Area Under the Curve AUC0-24h,[2],35072 ng·h/mL
same,Half-life T1/2,[2],4.2 h
same,Maximum Concentration Cmax,[2],4540 ng/mL
